The experiment deals with TTR in undiluted normal human reference plasma (Homo sapiens, UniProt P02766). The experiment can be described thus: 125I-T4 displacement assay in neat normal human plasma. The class given is binding. Particulars: read-out: Mean 125I-T4 IC50 ± SD (N = 3), 4-parameter logistic fit.

As for `O=C(O)c1ccc(-c2ccccc2)cc1`, the IC50 (commonly the concentration needed to halve the response being measured) worked out at 256 µM.
